Here are results for one substance from patent publication US8383386.

This data set concerns the target prothrombin (UniProt P00734).

For plasma-derived factor Xa, the Km ± SD (µM), prothrombin cleavage by FXa assembled in prothrombinase came to 0.42 µM; the Vmax/Et ± SD (nM IIa/min/nM E), prothrombin cleavage (nM IIa/min/nM E) worked out at 2420; the Vmax/Et · Km (µM^-1 · s^-1), prothrombin cleavage is 9.6e+07 M⁻¹ s⁻¹.
